Data on one compound can be found in ChEMBL document CHEMBL1140447, “Synthesis and antimuscarinic properties of quinuclidin-3-yl 1,2,3,4-tetrahydroisoquinoline-2-carboxylate derivatives as novel muscarinic receptor antagonists” (J Med Chem, 2005).

Amino acid sequences for entries named in this document (tags omitted).
UniProt P08483, whole entry, looked up: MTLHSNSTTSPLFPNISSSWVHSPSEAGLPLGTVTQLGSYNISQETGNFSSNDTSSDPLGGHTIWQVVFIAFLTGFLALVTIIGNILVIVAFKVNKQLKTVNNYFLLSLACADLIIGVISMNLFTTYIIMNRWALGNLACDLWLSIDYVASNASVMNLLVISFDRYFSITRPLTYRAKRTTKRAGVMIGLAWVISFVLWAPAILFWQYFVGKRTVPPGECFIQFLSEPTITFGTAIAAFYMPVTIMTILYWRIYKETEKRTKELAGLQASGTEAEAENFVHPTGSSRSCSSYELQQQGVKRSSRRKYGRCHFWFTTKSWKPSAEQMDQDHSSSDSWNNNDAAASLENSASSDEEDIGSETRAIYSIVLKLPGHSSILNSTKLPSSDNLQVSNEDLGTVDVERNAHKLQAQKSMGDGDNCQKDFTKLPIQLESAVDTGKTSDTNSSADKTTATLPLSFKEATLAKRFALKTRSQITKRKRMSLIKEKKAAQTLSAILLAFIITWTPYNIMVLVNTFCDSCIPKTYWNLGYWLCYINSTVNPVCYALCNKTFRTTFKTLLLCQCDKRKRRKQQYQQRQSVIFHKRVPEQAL
UniProt P10980, whole entry, looked up: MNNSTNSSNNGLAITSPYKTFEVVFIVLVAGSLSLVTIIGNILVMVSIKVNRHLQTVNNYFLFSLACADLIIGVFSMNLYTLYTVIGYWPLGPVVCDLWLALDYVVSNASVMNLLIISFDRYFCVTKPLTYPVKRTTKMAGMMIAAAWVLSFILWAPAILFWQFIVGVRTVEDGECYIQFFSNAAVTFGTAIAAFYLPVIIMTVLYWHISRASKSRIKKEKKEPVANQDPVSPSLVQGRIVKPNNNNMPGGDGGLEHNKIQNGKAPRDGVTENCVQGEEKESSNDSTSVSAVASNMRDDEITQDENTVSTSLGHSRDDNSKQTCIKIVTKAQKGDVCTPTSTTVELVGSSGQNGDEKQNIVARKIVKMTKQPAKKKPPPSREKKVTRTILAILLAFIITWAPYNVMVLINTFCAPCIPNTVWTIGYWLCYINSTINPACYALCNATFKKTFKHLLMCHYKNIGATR

For the assay, the target named is Muscarinic receptor M2 and M3 (Rattus norvegicus) (UniProt P08483+P10980). Description: Selectivity index as binding affinity for M2 and M3 receptors. It is filed as protein assay.

Compound `O=C(O[C@H]1CN2CCC1CC2)C1CCc2ccccc2N1c1ccccc1` (stereo partly specified) showed a Selectivity index of 5.4.
